# Source: patent US6451784B1 (priority 1996, dated 2002)
# “And” between values parts separate entries of the source, which are not always exact repeats. Identical values can stand only once. Like-named read-outs stand apart in the source and are kept apart here.
# Legend:
# Sprague Dawley rats = assay: Vesicant activity test: single intradermal injection, dermal lesion size; details: for Vesicant classification as determined by the methods used herein: lesion of at least about 20 mm^2 in at least one half of animals at day 15, severe: at least one-half still >about 10 mm^2 at day 31; for Individual Lesion Size Measurements, Day of Test (post injection) 22: day 22; for Individual Lesion Size Measurements, Day of Test (post injection) 20: day 20; for Individual Lesion Size Measurements, Day of Test (post injection) 27: day 27; for Individual Lesion Size Measurements, Day of Test (post injection) 29: day 29; for Individual Lesion Size Measurements, Day of Test (post injection) 24: day 24
# [1] = rats, cited from earlier work
# [2] = mice, IV injection (Siddik et al); cited from earlier work
# rats = assay: Respiratory tract toxicity of inhaled carboplatin in rats (Example 39); details: for Results (RTT = respiratory tract toxicity evaluated microscopically): inhaled
# [3] = Carboplatin formulations for inhalation, physical constants and saturation (Example 42)
# [4] = Carboplatin taken up by lung tissue and blood plasma after inhalation in rats (Example 40); details: for Ratio of carboplatin in lung to carboplatin in plasma: rat, inhalation, highest dose
# patients = details: IV administered drug, Physicians Desk Reference 1997; cited from earlier work
# neoplastic lung disease = details: Ex. 17, Rottweiler, excised distal osteosarcoma, lung nodule; inhalation Dox 7 mg, × 2, Cisplatin 15 mg, × 1; trial 1 mo.
# [5] = rat, 0.2 ml intradermal at clinical concentration, individual animals
# [6] = 0.24 mg/ml in 20:80% w/w propylene glycol:ethanol
# [7] = 0.26 mg/ml in 20:80% w/w PEG 300:ethanol
# [8] = 0.50 mg/ml in 20:80% w/w PEG 300:ethanol
# [9] = 0.75 mg/ml in 20:80% v/v PEG 300:ethanol (190 proof)
# [10] = 1.0 mg/ml in 20:80% w/w PEG 300:ethanol
# [11] = female rats, inhaled dose 1.8 mg/m^2 BSA, 20 min exposure, end of exposure
# [12] = female rats, inhaled dose 3.9 mg/m^2 BSA, 45 min exposure, end of exposure
# [13] = female rats, inhaled dose 7.7 mg/m^2 BSA, 90 min exposure, end of exposure
# [14] = male rats, inhaled dose 1.2 mg/m^2 BSA, 20 min exposure, end of exposure
# [15] = male rats, inhaled dose 2.1 mg/m^2 BSA, 45 min exposure, end of exposure
# [16] = male rats, inhaled dose 3.6 mg/m^2 BSA, 90 min exposure, end of exposure
# [17] = male rats, inhaled dose 10.0 mg/m^2 BSA, 180 min exposure, 1 day post-exposure
# [18] = male rats, inhaled dose 10.0 mg/m^2 BSA, 180 min exposure, 3 days post-exposure
compound,measurement,setting,value
Nc1ccn([C@@H]2O[C@H](CO)[C@@H](O)[C@@H]2O)c(=O)n1 [cytarabine],Vesicant classification as determined by the methods used herein,Sprague Dawley rats,non-vesicants
same,Abrasions of the dorsal body,"Sprague Dawley rats; rat, intradermal injection",all drugs except cytarabine
same,Dermal lesions,"Sprague Dawley rats; rat, intradermal injection",all drugs except for cytarabine
same,Severe erythema,"Sprague Dawley rats; rat, intradermal injection",all drugs except for cisplatin (platinol) and cytarabine
O=c1[nH]cc(F)c(=O)[nH]1,Vesicant classification as determined by the methods used herein,Sprague Dawley rats,non-vesicants
same,"Individual Lesion Size Measurements, Day of Test (post injection) 22",Sprague Dawley rats; [5],2.0 mm^2
same,Alopecia of the dorsal body (animals affected/animals),"Sprague Dawley rats; rat, intradermal injection",7/7
same,Rough coat (animals affected/animals),"Sprague Dawley rats; rat, intradermal injection",1/7
9-aminocamptothecin,Vesicant classification as determined by the methods used herein,Sprague Dawley rats,non-vesicants
carboplatin,Concentration of carboplatin in the lung,"[1]; IV 26.2 mg/kg (5.24 mg per 200 gram rat), 30 minutes post dose",21 ug carboplatin/gram of lung
same,Concentration of carboplatin in the lung as a percentage of the dose,"[1]; IV 26.2 mg/kg, 30 minutes post dose",0.4 % of the dose
same,Ratio of carboplatin in lung to carboplatin in plasma,[1]; IV injection (Tinker et al),< 5
same,Ratio of carboplatin in lung to carboplatin in plasma,[2],≤ 12
same,Results (RTT = respiratory tract toxicity evaluated microscopically),"rats; female rats, dose deposited in lung 6.35 mg/m^2 BSA",Moderate RTT
same,Results (RTT = respiratory tract toxicity evaluated microscopically),"rats; female rats, dose deposited in lung 13.86 mg/m^2 BSA",Severe /rtt
same,Results (RTT = respiratory tract toxicity evaluated microscopically),"rats; female rats, dose deposited in lung 17.57 mg/m^2 BSA",Lethal
same,Results (RTT = respiratory tract toxicity evaluated microscopically),"rats; male rats, dose deposited in lung 1.13 mg/m^2 BSA",Mininial/mild RTT
same,Results (RTT = respiratory tract toxicity evaluated microscopically),"rats; male rats, dose deposited in lung 3.32 mg/m^2 BSA",Moderate RTT
same,Results (RTT = respiratory tract toxicity evaluated microscopically),"rats; male rats, dose deposited in lung 7.18 mg/m^2 BSA",Severe RTT
same,Results (RTT = respiratory tract toxicity evaluated microscopically),"rats; male rats, dose deposited in lung 12.88 mg/m^2 BSA",Lethal
same,Toxicity at the lowest doses,"rats; rat, both sexes, inhalation",well tolerated and caused only minimal to mild microscopic changes in the respiratory tract
same,Toxicity at higher doses,"rats; rat, inhalation",moderate or severe
same,Toxicity at the highest doses in each sex,"rats; rat, inhalation",lethal
same,Toxicity of inhaled doses giving 24 ug/gram of lung,"rats; rat, inhalation 1.2 mg/m^2 (male), less than 3.9 mg/m^2 (female)",not lethal in the rat and cause only mild to moderate microscopic toxicity to the respiratory tract
same,"Individual Lesion Size Measurements, Day of Test (post injection) 34","Sprague Dawley rats; rat, 0.2 ml intradermal at clinical concentration, individual animals, day 34",19.2 mm^2
same,"Individual Lesion Size Measurements, Day of Test (post injection) 36","Sprague Dawley rats; rat, 0.2 ml intradermal at clinical concentration, individual animals, day 36",0.6 mm^2
same,Saturation of the solution (solubility),[3]; 0.24 mg/ml in 20:80% w/w glycerol:ethanol,appeared to be saturated
same,Resistivity of the solution,[3]; [6],"5,680 ohm-m"
same,Saturation of the solution (solubility),[3]; [6],appeared to be saturated
same,Approximate dissolution time,[3]; [7],about 24 hours
same,Resistivity of the solution,[3]; [7],"2,130 ohm-m"
same,Approximate dissolution time,[3]; [8],about 24 hours
same,Resistivity of the solution,[3]; [8],"2,020 ohm-m"
same,Saturation of the solution (solubility),[3]; 0.50 mg/ml in 20:80% w/w glycerol:ethanol,saturated
same,Resistivity of the solution,[3]; 0.50 mg/ml in 20:80% w/w propylene glycol:ethanol,"5,350 ohm-m"
same,Density,[3]; [9],0.861 g/mL
same,Relative permitivity,[3]; [9],22
same,Resistivity,[3]; [9],"2,430 ohm-m"
same,Surface tension,[3]; [9],24.5 dynes/cm
same,Resistivity of the solution,[3]; [10],"2,000 ohm-m"
same,Saturation of the solution (solubility),[3]; [10],saturated
same,Inhaled dose achieving 24 ug/gram of lung,[4]; female rats,less than 3.9 mg/m^2
same,Lung/Plasma,[4]; [11],53.8
same,Measured Carboplatin Concentration Lung,[4]; [11],21 µg/g
same,Measured Carboplatin Concentration Plasma,[4]; [11],0.39 µg/g
same,Lung/Plasma,[4]; [12],46.7
same,Measured Carboplatin Concentration Lung,[4]; [12],35 µg/g
same,Measured Carboplatin Concentration Plasma,[4]; [12],0.75 µg/g
same,Lung/Plasma,[4]; [13],57.1
same,Measured Carboplatin Concentration Lung,[4]; [13],72 µg/g
same,Measured Carboplatin Concentration Plasma,[4]; [13],1.26 µg/g
same,Inhaled dose achieving 24 ug/gram of lung,[4]; male rats,1.2 mg/m^2
same,Lung/Plasma,[4]; [14],53.1
same,Measured Carboplatin Concentration Lung,[4]; [14],26 µg/g
same,Measured Carboplatin Concentration Plasma,[4]; [14],0.49 µg/g
same,Lung/Plasma,[4]; [15],53.8
same,Measured Carboplatin Concentration Lung,[4]; [15],50 µg/g
same,Measured Carboplatin Concentration Plasma,[4]; [15],0.93 µg/g
same,Lung/Plasma,[4]; [16],60.1
same,Measured Carboplatin Concentration Lung,[4]; [16],86 µg/g
same,Measured Carboplatin Concentration Plasma,[4]; [16],1.43 µg/g
same,Lung/Plasma,[4]; [17],200.0
same,Measured Carboplatin Concentration Lung,[4]; [17],28 µg/g
same,Measured Carboplatin Concentration Plasma,[4]; [17],0.14 µg/g
same,Lung/Plasma,[4]; [18],277.8
same,Measured Carboplatin Concentration Lung,[4]; [18],25 µg/g
same,Measured Carboplatin Concentration Plasma,[4]; [18],0.09 µg/g
same,Ratio of carboplatin in lung to carboplatin in plasma,[4]; 1 day post exposure,200.0
same,Ratio of carboplatin in lung to carboplatin in plasma,[4]; 3 days post exposure,277.8
bleomycin,"Pulmonary toxicities, share of treated patients",patients,about 10 % of treated patients
same,Vesicant classification as determined by the methods used herein,Sprague Dawley rats,non-vesicants
same,"Individual Lesion Size Measurements, Day of Test (post injection) 20",Sprague Dawley rats; [5],1.3 mm^2 and 1.0 mm^2
same,"Individual Lesion Size Measurements, Day of Test (post injection) 22",Sprague Dawley rats; [5],0.6 mm^2
same,"Individual Lesion Size Measurements, Day of Test (post injection) 27",Sprague Dawley rats; [5],0.4 mm^2
same,Alopecia of the dorsal body (animals affected/animals),"Sprague Dawley rats; rat, intradermal injection",7/7
"COc1cc([C@@H]2c3cc4c(cc3[C@@H](O[C@@H]3O[C@@H]5CO[C@@H](C)O[C@H]5[C@H](O)[C@H]3O)[C@H]3COC(=O)[C@H]23)OCO4)cc(OC)c1O [Etoposide, etoposide]",Vesicant classification as determined by the methods used herein,Sprague Dawley rats,non-vesicants
same,Alopecia of the dorsal body (animals affected/animals),"Sprague Dawley rats; rat, intradermal injection",7/7
cisplatin,Results,neoplastic lung disease,PD lung
same,Vesicant classification as determined by the methods used herein,Sprague Dawley rats,non-vesicants
same,"Individual Lesion Size Measurements, Day of Test (post injection) 29",Sprague Dawley rats; [5],1.4 mm^2
same,Severe erythema,"Sprague Dawley rats; rat, intradermal injection",all drugs except for cisplatin (platinol) and cytarabine
"COc1cccc2c1C(=O)c1c(O)c3c(c(O)c1C2=O)C[C@@](O)(C(=O)CO)C[C@@H]3O[C@H]1C[C@H](N)[C@H](O)[C@H](C)O1 [Doxorubicin, doxorubicin]",Alopecia of the dorsal body (animals affected/animals),"Sprague Dawley rats; rat, intradermal injection",3/7
same,Edema,"Sprague Dawley rats; rat, intradermal injection",Moderate edema
same,Lesions lasting until the test termination at day 41,"Sprague Dawley rats; rat, intradermal injection",lesions that lasted until the test termination at day 41
"CC(=O)O[C@H]1C(=O)[C@@]2(C)[C@H]([C@H](OC(=O)c3ccccc3)[C@]3(O)C[C@H](OC(=O)[C@H](O)[C@@H](NC(=O)c4ccccc4)c4ccccc4)C(C)=C1C3(C)C)[C@]1(OC(C)=O)CO[C@@H]1C[C@@H]2O [Taxol, Paclitaxel]","Individual Lesion Size Measurements, Day of Test (post injection) 20",Sprague Dawley rats; [5],5.6 mm^2
same,"Individual Lesion Size Measurements, Day of Test (post injection) 22",Sprague Dawley rats; [5],2.1 mm^2
same,"Individual Lesion Size Measurements, Day of Test (post injection) 24",Sprague Dawley rats; [5],1.8 mm^2
same,Alopecia of the dorsal body (animals affected/animals),"Sprague Dawley rats; rat, intradermal injection",7/7
CCC1=C[C@@H]2CN(C1)Cc1c([nH]c3ccccc13)[C@@](C(=O)OC)(c1cc3c(cc1OC)N(C)[C@H]1[C@@](O)(C(=O)OC)[C@H](OC(C)=O)[C@]4(CC)C=CCN5CC[C@]31[C@@H]54)C2,Alopecia of the dorsal body (animals affected/animals),"Sprague Dawley rats; rat, intradermal injection",7/7
same,Lesions lasting until the test termination at day 41,"Sprague Dawley rats; rat, intradermal injection",lesions that lasted until the test termination at day 41
same,Rough coat (animals affected/animals),"Sprague Dawley rats; rat, intradermal injection",2/7
"CC[C@]1(O)C[C@H]2CN(CCc3c([nH]c4ccccc34)[C@@](C(=O)OC)(c3cc4c(cc3OC)N(C=O)[C@H]3[C@@](O)(C(=O)OC)[C@H](OC(C)=O)[C@]5(CC)C=CCN6CC[C@]43[C@@H]65)C2)C1 [Vincristine, vincristine]",Alopecia of the dorsal body (animals affected/animals),"Sprague Dawley rats; rat, intradermal injection",2/7
same,Lesions lasting until the test termination at day 41,"Sprague Dawley rats; rat, intradermal injection",lesions that lasted until the test termination at day 41
same,Rough coat (animals affected/animals),"Sprague Dawley rats; rat, intradermal injection",4/7
same,Systemic effects,"Sprague Dawley rats; rat, intradermal injection",Systemic effects were observed only for vincristine
O=P1(N(CCCl)CCCl)NCCCO1 (centres unmarked),Vesicant classification as determined by the methods used herein,Sprague Dawley rats,non-vesicants
same,"Individual Lesion Size Measurements, Day of Test (post injection) 20",Sprague Dawley rats; [5],12.1 mm^2 and 13.2 mm^2 and 17.4 mm^2
same,"Individual Lesion Size Measurements, Day of Test (post injection) 22",Sprague Dawley rats; [5],12.5 mm^2 and 12.2 mm^2 and 14.6 mm^2
same,"Individual Lesion Size Measurements, Day of Test (post injection) 24",Sprague Dawley rats; [5],14.0 mm^2 and 12.7 mm^2 and 15.6 mm^2
same,"Individual Lesion Size Measurements, Day of Test (post injection) 27",Sprague Dawley rats; [5],7.8 mm^2 and 7.5 mm^2 and 4.1 mm^2
same,"Individual Lesion Size Measurements, Day of Test (post injection) 29",Sprague Dawley rats; [5],2.4 mm^2 and 1.8 mm^2 and 2.0 mm^2
same,"Individual Lesion Size Measurements, Day of Test (post injection) 31","Sprague Dawley rats; rat, 0.2 ml intradermal at clinical concentration, individual animals, day 31",1.5 mm^2
"CO[C@@]12[C@H](COC(N)=O)C3=C(C(=O)C(C)=C(N)C3=O)N1C[C@@H]1N[C@@H]12 [Mutamycin, mitomycin]","Individual Lesion Size Measurements, Day of Test (post injection) 41","Sprague Dawley rats; rat, 0.2 ml intradermal at clinical concentration, individual animals, day 41",25.6 mm^2
same,Alopecia of the dorsal body (animals affected/animals),"Sprague Dawley rats; rat, intradermal injection",4/7
same,Discoloration of the skin around the site of injection,"Sprague Dawley rats; rat, intradermal injection",Discoloration of the skin around the site of injection was seen
same,Edema,"Sprague Dawley rats; rat, intradermal injection",Moderate edema
same,Lesions lasting until the test termination at day 41,"Sprague Dawley rats; rat, intradermal injection",only one animal of seven still had lesions to the end of the test
